{"sequences": {"note": "Sequences of proteins named here, by UniProt entry; tags and fusion partners are left off.", "UniProt P42336, whole entry": "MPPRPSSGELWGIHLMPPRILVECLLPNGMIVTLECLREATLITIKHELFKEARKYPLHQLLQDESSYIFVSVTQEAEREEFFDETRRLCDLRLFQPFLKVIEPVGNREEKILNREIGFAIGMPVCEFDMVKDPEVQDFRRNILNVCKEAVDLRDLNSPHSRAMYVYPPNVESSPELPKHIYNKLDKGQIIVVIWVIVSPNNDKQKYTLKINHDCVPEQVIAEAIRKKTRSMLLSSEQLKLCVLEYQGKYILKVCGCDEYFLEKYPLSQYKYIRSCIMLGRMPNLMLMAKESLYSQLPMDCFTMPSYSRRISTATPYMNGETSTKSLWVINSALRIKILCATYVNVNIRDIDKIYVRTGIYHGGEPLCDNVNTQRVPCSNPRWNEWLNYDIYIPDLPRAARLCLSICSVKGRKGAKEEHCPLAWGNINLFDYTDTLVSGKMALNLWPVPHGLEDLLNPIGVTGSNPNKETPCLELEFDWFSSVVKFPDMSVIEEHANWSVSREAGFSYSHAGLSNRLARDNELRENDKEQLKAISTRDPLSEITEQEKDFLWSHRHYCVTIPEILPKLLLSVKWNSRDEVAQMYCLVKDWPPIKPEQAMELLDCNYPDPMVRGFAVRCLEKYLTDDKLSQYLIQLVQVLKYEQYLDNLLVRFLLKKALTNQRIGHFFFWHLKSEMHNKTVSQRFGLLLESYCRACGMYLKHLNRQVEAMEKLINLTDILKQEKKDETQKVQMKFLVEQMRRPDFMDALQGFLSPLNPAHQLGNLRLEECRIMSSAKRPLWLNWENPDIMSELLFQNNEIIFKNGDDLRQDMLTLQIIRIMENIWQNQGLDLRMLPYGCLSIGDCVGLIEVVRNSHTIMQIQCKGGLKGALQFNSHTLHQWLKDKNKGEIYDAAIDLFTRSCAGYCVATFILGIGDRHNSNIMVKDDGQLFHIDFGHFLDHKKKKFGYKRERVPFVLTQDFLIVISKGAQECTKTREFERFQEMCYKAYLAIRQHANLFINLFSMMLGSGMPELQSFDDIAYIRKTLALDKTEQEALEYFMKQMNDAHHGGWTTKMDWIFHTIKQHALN"}, "source": "ChEMBL document CHEMBL4330088", "about": "“Targeting the immunity protein kinases for immuno-oncology” (Eur J Med Chem, 2019)", "key": {"[1]": {"target": "PI3-kinase p110-alpha/p85-alpha (Homo sapiens, UniProt P42336)", "assay": "Inhibition of human N-terminal His-tagged PI3Kalpha/p85alpha expressed in Spodoptera frugiperda using phosphatidylinositol as substrate"}, "[2]": {"target": "T1, Phosphatidylinositol 4,5-bisphosphate 3-kinase catalytic subunit delta isoform (Homo sapiens, UniProt O00329)", "T1 sequence (O00329 whole entry)": "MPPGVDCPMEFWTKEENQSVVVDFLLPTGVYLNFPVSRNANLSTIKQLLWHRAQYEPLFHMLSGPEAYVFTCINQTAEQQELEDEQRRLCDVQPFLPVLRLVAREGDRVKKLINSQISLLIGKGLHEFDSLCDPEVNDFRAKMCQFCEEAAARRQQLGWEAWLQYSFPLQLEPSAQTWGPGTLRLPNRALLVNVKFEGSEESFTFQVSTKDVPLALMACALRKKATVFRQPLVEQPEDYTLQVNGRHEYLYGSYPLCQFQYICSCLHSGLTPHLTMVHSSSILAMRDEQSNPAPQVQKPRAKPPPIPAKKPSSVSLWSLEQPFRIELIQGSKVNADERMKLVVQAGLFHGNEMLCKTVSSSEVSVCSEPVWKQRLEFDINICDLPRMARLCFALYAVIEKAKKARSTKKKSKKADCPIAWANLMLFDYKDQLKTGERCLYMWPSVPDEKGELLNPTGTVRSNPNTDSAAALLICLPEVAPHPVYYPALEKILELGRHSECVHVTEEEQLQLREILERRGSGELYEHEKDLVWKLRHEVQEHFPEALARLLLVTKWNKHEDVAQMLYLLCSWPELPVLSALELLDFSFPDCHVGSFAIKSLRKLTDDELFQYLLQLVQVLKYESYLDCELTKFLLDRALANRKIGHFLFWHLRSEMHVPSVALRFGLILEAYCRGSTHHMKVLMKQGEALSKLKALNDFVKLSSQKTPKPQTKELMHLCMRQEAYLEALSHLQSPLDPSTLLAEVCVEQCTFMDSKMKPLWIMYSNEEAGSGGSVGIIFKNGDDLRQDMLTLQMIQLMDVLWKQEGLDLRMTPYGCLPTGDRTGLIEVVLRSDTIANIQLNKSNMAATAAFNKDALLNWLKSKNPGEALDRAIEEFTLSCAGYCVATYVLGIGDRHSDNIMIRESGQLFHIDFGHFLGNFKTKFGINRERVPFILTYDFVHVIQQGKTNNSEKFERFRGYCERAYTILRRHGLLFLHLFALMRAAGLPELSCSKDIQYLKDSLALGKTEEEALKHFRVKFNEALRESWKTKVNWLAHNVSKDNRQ", "assay": "Inhibition of PI3Kdelta (unknown origin)"}}, "data": [{"smiles": "Cc1csc2nc([C@H](C)Nc3ncnc4[nH]cnc34)c(-c3cccc(F)c3)c(=O)n12", "note": "[DEZAPELISIB]", "values": [{"measurement": "IC50", "setting": "[1]", "value": "> 10000", "unit": "nM"}, {"measurement": "IC50", "setting": "[2]", "value": 31, "unit": "nM"}]}]}
